Data as given in patent publication US20200003760A1, “IN-VITRO METHODS FOR CLASSIFYING DRUGS ACCORDING TO THEIR POTENTIAL TO CAUSE LIVER CELL INJURY” (Board of Trustees of Michigan State University, priority 2018, published 2020).

Experiments:
[1] = Logistic regression classification model: probability that a drug is associated with IDILI; set-up: species or system human; settings: covariates Deltadiff, EC50 VEH, EC50 TNF, Delta VEH, Cmax, optimal cutoff 0.46
HepG2 cells = assay: Drug/cytokine-induced cytotoxicity (% LDH release) concentration-response in HepG2 cells

Estimated probability [1]	Compound	cytotoxic interaction of drug with TNF (HepG2 cells; HepG2, 24 h, TNF 10 ng/ml)	cytotoxicity of drug on its own (LDH release) (HepG2 cells; HepG2, 24 h, absence of cytokines)	TNF change (HepG2 cells; categorical, D10TNF − D10VEH)
0.8578	O=C(O)Cc1ccccc1Nc1c(Cl)cccc1Cl [Diclofenac]	–	–	–
–	COc1ccc2cc([C@H](C)C(=O)O)ccc2c1 [Naproxen]	TNF significantly enhanced the cytotoxicity	statistically significant increase in LDH release	0
0.6685	CC[C@H]1OC(=O)[C@H](C)C(=O)[C@H](C)[C@@H](O[C@@H]2O[C@H](C)C[C@H](N(C)C)[C@H]2O)[C@](C)(OC)C[C@@H](C)C(=O)[C@H](C)[C@H]2N(CCCCn3cnc(-c4cccnc4)c3)C(=O)O[C@]12C [Telithromycin]	–	–	–
